Chains of the proteins cited; added tags and fusions are not shown. Residues count along the entry.
UniProt P10721, 26-976: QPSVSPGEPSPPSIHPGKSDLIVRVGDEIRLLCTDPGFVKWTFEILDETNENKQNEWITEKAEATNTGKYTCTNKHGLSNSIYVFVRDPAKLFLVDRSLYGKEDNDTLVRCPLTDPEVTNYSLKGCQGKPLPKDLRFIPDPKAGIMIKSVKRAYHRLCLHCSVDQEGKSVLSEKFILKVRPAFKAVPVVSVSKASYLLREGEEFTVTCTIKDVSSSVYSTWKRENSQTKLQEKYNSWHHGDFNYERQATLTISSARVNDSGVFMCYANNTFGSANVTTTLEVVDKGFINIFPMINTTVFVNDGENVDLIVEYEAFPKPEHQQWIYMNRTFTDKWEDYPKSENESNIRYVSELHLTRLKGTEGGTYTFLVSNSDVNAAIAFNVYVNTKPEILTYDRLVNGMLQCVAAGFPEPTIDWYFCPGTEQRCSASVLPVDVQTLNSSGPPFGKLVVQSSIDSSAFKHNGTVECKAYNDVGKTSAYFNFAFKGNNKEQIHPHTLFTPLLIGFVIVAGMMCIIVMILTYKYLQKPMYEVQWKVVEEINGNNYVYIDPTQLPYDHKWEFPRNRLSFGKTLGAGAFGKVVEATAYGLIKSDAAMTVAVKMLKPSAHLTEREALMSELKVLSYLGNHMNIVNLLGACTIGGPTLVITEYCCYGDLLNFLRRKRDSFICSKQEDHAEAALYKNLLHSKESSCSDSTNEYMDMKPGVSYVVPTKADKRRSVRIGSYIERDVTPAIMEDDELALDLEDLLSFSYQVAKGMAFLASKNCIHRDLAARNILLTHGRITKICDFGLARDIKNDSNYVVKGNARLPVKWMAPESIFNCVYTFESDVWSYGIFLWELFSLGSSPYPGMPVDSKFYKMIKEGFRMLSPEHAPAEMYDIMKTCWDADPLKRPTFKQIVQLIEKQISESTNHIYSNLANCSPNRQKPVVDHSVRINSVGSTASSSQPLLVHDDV

According to patent publication US20250059174A1, “Pharmaceutical Compounds and Compositions as C-Kit Kinase Inhibitors” (Enanta Pharmaceuticals, Inc., priority 2023, published 2025):

Biological target: Recombinant human c-KIT kinase (Homo sapiens (Human), UniProt P10721)
Assay: c-KIT kinase chemiluminescence assay (ADP-Glo)
Format: biochemical
Protocol: The c-KIT Kinase Enzyme System (V4498) and ADP-Glo™ Kinase Assay kit (V6930) were purchased from Promega (Madison, WI). DMSO (D2650) was purchased from Sigma-Aldrich (Burlington, MA).
Kinase Reaction: The kinase assay was based on the recommended protocol by c-KIT Kinase Enzyme System from Promega. Recombinant human c-KIT kinase in 3 μL of assay buffer (40 mM Tris pH 7.5, 20 mM MgCl2, 0.1 mg/mL BSA and 50 μM DTT) was added to the test or high control wells and 3 μL of assay buffer was added to the low control wells. The microplate was centrifuged at 800 rotations per minute (rpm) for 60 s and incubated at room temperature (RT) for 30 min. Next, 2 μL of buffered ATP and polyEY substrate solution was added to all wells. The microplate was centrifuged at 800 rpm for 60 s and incubated at RT for 2 h.
ADP detection with ADP-Glo™ Kinase Assay: After the kinase reaction incubation, 5 μL of ADP-Glo™ reagent was added to all wells. The microplate was centrifuged at 800 rpm for 60 s and incubated at RT for 40 min. Ten microliter (10 μL) of Kinase Detection Reagent (Luciferin-Luciferase system) was then added to all wells. The microplate was centrifuged at 800 rpm for 60 s and incubated at RT for 60 min. Kinase activity was measured as increase in luminescence at RT in an Envision plate reader equipped with 560 nm filters and operating in endpoint mode. […]

Cc1ccc(-c2noc([C@H]3C[C@@H]3F)n2)cc1NC(=O)c1cnc(-c2cnc3c(cnn3C3CCCCO3)c2)o1 (stereo partly shown) [Example 375]
pIC50: 6.00 to 7.00

pIC50: −log10 of the molar value.
